Experimental data as given in patent US8759537B2, “3H-imidazo [4, 5-C] pyridine-6-carboxamides as anti-inflammatory agents” (Boehringer Ingelheim International GmbH, priority 2010, dated 2014).

By UniProt entry, the sequences of proteins in these tests, tags left out. Where a name states a change or a piece, a line headed by the entry shows the natural chain unless it says otherwise.
UniProt O14684: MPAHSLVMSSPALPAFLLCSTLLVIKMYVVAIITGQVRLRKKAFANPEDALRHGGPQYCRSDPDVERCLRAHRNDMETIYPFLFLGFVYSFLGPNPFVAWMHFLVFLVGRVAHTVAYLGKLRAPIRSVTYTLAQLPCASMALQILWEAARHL

Tests used:
mPGES-1 [1] = molecular target: T1, mPGES-1 (Homo sapiens (Human), UniProt O14684); assay: mPGES-1 enzyme assay (HTRF detection of PGE2); type: biochemical; settings: recombinant human mPGES-1 microsomes, PGH2 2 μM; read-out: mPGES-1 inhibitory effect in the enzyme assay, IC50
Method: Microsomes from Rosetta E. coli bacteria expressing recombinant human mPGES-1 can be derived as described below:
Inoculate 5 ml LB with Ampicilin (50 μg/ml) and Chloramphenicol (34 μg/ml) with bacteria from freeze culture. Incubate 8 h at 37° C. with 200 rpm. Thereafter, inoculate 500-1000 ml LB containing Amp and Chloro with the 5 ml on culture and grow to OD640 of 0.8-1.0. Chill the culture to +4° C. before induction. Induce the culture with IPTG at a final concentration of 400 μM. Express the protein at room temp 18-23° C. with 200 rpm shaking over night.
The following steps can be performed on the following day: • 1. […]
47 μl of recombinant human mPGES-1 (˜0.5 μg protein/well) containing microsomal suspension in a buffer containing GSH, (2.5 mmol/L L-Glutathione reduced, dissolved in 0.1 mol/L Phosphat Buffer pH 7.4) is dispensed in a 384-well plate and thereafter 1 μl of the test compound(s) is/are added and incubated for 25 minutes at room temperature. […] In order to quantify the amount of PGE2 that has been formed, a homogenous time resolved fluorescent (HTRF) detecting of PGE2 has been performed using a commercially available kit from Cisbio according to the manufactures recommendation. […] After an incubation period of the plates over night, the fluorescence is measured by the use of an appropriate microplate reader. […]

mPGES-1 [2] = molecular target: T1, mPGES-1; assay: A549 cell-based assay (PGE2 formation, IL-1β stimulated, 50% human serum); settings: A549 cells, IL-1β 5 ng/ml, read-out: mPGES-1 inhibitory effect in the cell assay, IC50
Method: Although the enzymatic assay is a high throughput assay the disadvantage is that it uses a recombinant protein which is not in its natural environment. Accordingly a cellular assay was established in which a cell line of human origin (A549) expressing the mPGES-1 protein was used. In addition in order to mimic the situation in humans in which compounds can be bound to plasma proteins 50% human serum is added in the assay.
Cells were detached using Trypsin-EDTA. A549 cells were seeded in a 384-well collagene plate at a density of 7000 cells/well (50 μl) in F-12 medium containing 1% Penicillin-Streptomycin and 50% human serum. The cells were allowed to attach for 3-4 h. […] The total volume is 100 μl.
Concentrations of PGE2 in the cell free medium (10 μl) were measured using a commercially available HTRF kit from Cisbio (as described above). The PGE2 formation in the absence of test compound was taken as 100%.
IC50 values were derived from at 6-8 point titrations using conventional software.

## Cn1c(Nc2c(Cl)ccc(CNC(=O)C(C)(C)C)c2Cl)nc2cc(C(=O)Nc3ccc(F)c(Cl)c3)c(F)cc21 [Example 17, N-(4-Fluoro-3-chloro-phenyl)-2-{2,6-dichloro-3-[(2,2-dimethyl-propionylamino)-methyl]-phenylamino}-6-fluoro-1-methyl-1H-benzimidazole-5-carboxylic acid amide]
mPGES-1 [1]
  IC50: 1 nM
mPGES-1 [2]
  IC50: 1 nM
